Compound activity deposited in PubChem by Broad Institute.
Hits are enriched below; roughly 1.9% of the tested compounds scored in any of these assays.
ERp5 inh: blocks human ERp5 reductase activity on insulin; Q15084; ERp5 insulin aggregation, absorbance 650 nm, 90 min; inhibition, % at 9.99 µM; 350,000 tested, 0.05% active; AID 651711;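 active means mean replicate inhibition above about 25%, with every replicate also reaching it, limit read from the data, passing the limit was not always enough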
FGF22 binding: FGF22 (human) thermal shift binding; recombinant FGF22 thermal shift, SYPRO orange fluorescence; percent of sucrose octasulfate shift, DMSO zero; AID 651658; 340,000 tested, 1.5% active; Q9HCT0; activity (Tm shift, normalised), % at 9.99 µM;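 active means mean Tm shift, scaled 0 neutral to 100 positive control, at about 1.3% or above, every replicate too, limit read from the data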
Yeast UUG start: modulators of start codon recognition fidelity in yeast; S. cerevisiae UUG-firefly luciferase reporter, luminescence/redox ratio; AID 602363; 350,000 tested, 0.13% active; activity score, % at 18.7 µM;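 active = replicate mean at a twofold rise or more, about +100% in these data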;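 also: firefly luciferase made from a UUG start codon reports start codon fidelity; reporter light over untreated wells divided by growth signal over untreated wells; some hits fall short of that in this replicate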
PDI turbidity: blocks human protein disulfide isomerase activity. P07237. PDI insulin aggregation turbidity, A650, 90 min. inhibition, % at 10 µM. 350,000 tested, 0.052% active;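 active means mean inhibition across replicates of 30% or more, whatever share of single replicates reach that level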
ARNT-TACC3 inh: ARNT/TACC3 interaction disruption; AlphaScreen His-ARNT PAS-B/GST-TACC3 binding, luminescence; TACC3 fragment carries E629A point mutation; inhibition, % at 9.99 µM; 390,000 tested, 0.66% active;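 active means mean inhibition of replicates at least 50% and at least half of replicates each reaching 50%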;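 further: 0% = complete ARNT plus TACC3 wells and 100% = ARNT alone without TACC3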
PglD inh: inhibitors of Campylobacter jejuni PglD acetyltransferase | inhibition, % at 12.5 µM | 360,000 tested, 0.098% active | purified PglD enzyme, DTNB colorimetric CoA detection; in the data active means inhibition above about 16%, passing the limit was not always enough
Active calls of the source: *.

`COc1ccc(N=C2NN=C(c3c(C)[nH]c4ccccc34)CS2)cc1` gave ERp5 inh -5, FGF22 binding 43*, PDI turbidity -4 and ARNT-TACC3 inh 6.
`CCS(=O)(=O)N1[C@@H](CO)[C@@H](c2ccccc2)C12CN(C(=O)C1CCCCC1)C2` gave ERp5 inh -2 and FGF22 binding 0.
Screening CC(=O)NC(C)c1cc(F)c2cccnc2c1O (stereo not given) returned ERp5 inh -3, FGF22 binding -1, Yeast UUG start -23, PDI turbidity 12, ARNT-TACC3 inh 74* and PglD inh 1.
Screening CC(=O)NC(c1cc(Cl)c2cccnc2c1O)C1CC1 (stereo not given) returned ERp5 inh 10, FGF22 binding 0, Yeast UUG start -17, PDI turbidity -2, ARNT-TACC3 inh 69* and PglD inh 0.
COc1ccc(S(=O)(=O)Nc2ccc3c(c2)C(=O)N([C@@H](C)CO)C[C@H](C)[C@H](CN(C)Cc2ccc(C(=O)O)cc2)OCCCC[C@H](C)O3)cc1 was read as ERp5 inh -4, FGF22 binding 1, Yeast UUG start 3, ARNT-TACC3 inh 2 and PglD inh 1.
For Cc1ccc(S(N)(=O)=O)c(C)c1N1CCCC1=O the results were ERp5 inh 1, FGF22 binding 44*, PDI turbidity 3 and ARNT-TACC3 inh 6.
`Cc1ccc(S(=O)(=O)O)c(C)c1N1CCCC1=O` gave Yeast UUG start -11, PDI turbidity -9, ARNT-TACC3 inh -7 and PglD inh -1.
O=C(C[C@@H]1C[C@H]2c3cc(NS(=O)(=O)c4ccc(F)cc4)ccc3O[C@H]2[C@@H](CO)O1)NCC1CC1 was read as FGF22 binding 0, Yeast UUG start -14, ARNT-TACC3 inh -12 and PglD inh 5.
`O=C(NC1CCCC1)C(=O)N(Cc1cccnc1)C(C(=O)NCc1ccco1)c1ccccc1F` (stereo not given) gave ERp5 inh -6, FGF22 binding 44*, PDI turbidity 9 and ARNT-TACC3 inh -2.
`COc1cc(-c2nc(CN3CCN(c4ncccn4)CC3)c(C)o2)ccc1F` gave ERp5 inh -2, FGF22 binding 43*, PDI turbidity -5 and ARNT-TACC3 inh 0.
C[C@H](CO)N1C[C@H](C)[C@H](CN(C)C(=O)Nc2cccc3ccccc23)Oc2c(NS(=O)(=O)c3cccs3)cccc2C1=O was read as ERp5 inh 1, FGF22 binding -1, Yeast UUG start 19, ARNT-TACC3 inh 32 and PglD inh 1.
For Cc1ccc(C2=NN(C(=O)c3ccco3)C(O)(C(F)(F)F)C2)cc1 (stereo not given) the results were ERp5 inh -8, FGF22 binding 44*, Yeast UUG start 41, PDI turbidity -3, ARNT-TACC3 inh 5 and PglD inh -8.
Screening COc1cccc(C2=NN(C(=O)c3ccco3)C(O)(C(F)(F)F)C2)c1 (stereo not given) returned ERp5 inh 2, FGF22 binding 0, Yeast UUG start -16, PDI turbidity 2, ARNT-TACC3 inh 5 and PglD inh -1.
CO[C@@H]1CN(C)C(=O)c2ccc(NC(=O)C3CCCCC3)cc2OC[C@@H](C)NC[C@@H]1C was read as ERp5 inh 2, FGF22 binding 0, Yeast UUG start -9, ARNT-TACC3 inh -4 and PglD inh 4.
For COC(=O)CCC(=O)OC1(C)C(=O)C=C2C=C(C3CC3)N(CCCOC(C)C)C=C2C1=O (stereo not given) the results were Yeast UUG start 6, PDI turbidity -8, ARNT-TACC3 inh 75* and PglD inh -2.
`COC(=O)CCC(=O)OC1(C)C(=O)C=C2C=C(C3CC3)N(CCc3ccccn3)C=C2C1=O` (stereo not given) gave ERp5 inh 0, FGF22 binding 0, Yeast UUG start -6, PDI turbidity -2, ARNT-TACC3 inh 11* and PglD inh -2.
For COC(=O)CCC(=O)OC1(C)C(=O)C=C2C=C(C3CC3)N(CCCCO)C=C2C1=O (stereo not given) the results were ERp5 inh -4, FGF22 binding 0, Yeast UUG start 0, PDI turbidity 0, ARNT-TACC3 inh 32* and PglD inh -2.
Screening COC(=O)CCC(=O)OC1(C)C(=O)C=C2C=C(C3CC3)N(CCN3CCOCC3)C=C2C1=O (stereo not given) returned ERp5 inh 6, FGF22 binding 0, Yeast UUG start 5, PDI turbidity -1, ARNT-TACC3 inh 3 and PglD inh 0.
Screening C=CCN1C=C2C(=O)C(C)(OC(=O)CCC(=O)OC)C(=O)C=C2C=C1C1CC1 (stereo not given) returned ERp5 inh 3, FGF22 binding 0, Yeast UUG start 0, PDI turbidity 9, ARNT-TACC3 inh 3 and PglD inh 0.
Screening O=C1OC(c2cccs2)=N/C1=C/c1ccc(-c2cccc(C(=O)O)c2)o1 returned ERp5 inh 9, FGF22 binding 9.4* and PDI turbidity 0.
Cc1cc(CN2CCCC(CO)(Cc3cccc(Cl)c3)C2)n[nH]1 (stereo not given) was read as ERp5 inh 2, FGF22 binding 44* and PDI turbidity 1.
`CCNS(=O)(=O)c1ccc(NC(=S)NCC2CCCO2)cc1` (stereo not given) gave ERp5 inh -2, FGF22 binding 43*, PDI turbidity 2 and ARNT-TACC3 inh 1.
For Cc1cc(C)n2nc(SCc3nnc(-c4cccs4)o3)nc2n1 the results were ERp5 inh 0, FGF22 binding 43*, PDI turbidity 2 and ARNT-TACC3 inh -1.
Screening COc1cc(OC)c2c(-c3ccccc3)cc(=O)oc2c1C(CCN1CCCC(C)C1)c1ccc(N(C)C)cc1 (stereo not given) returned ERp5 inh -6, FGF22 binding -1, Yeast UUG start -6, PDI turbidity 9, ARNT-TACC3 inh 45* and PglD inh -2.
For CCN(CC)CCC(c1ccc(N(C)C)cc1)c1c(OC)cc(OC)c2c(-c3ccccc3)cc(=O)oc12 (stereo not given) the results were ERp5 inh 5, FGF22 binding 0, Yeast UUG start -12, PDI turbidity -1, ARNT-TACC3 inh 39* and PglD inh -1.
Screening COc1ccc(C(CCN2CCCC(C)C2)c2c(OC)cc(OC)c3c(-c4ccccc4)cc(=O)oc23)cc1 (stereo not given) returned ERp5 inh 3, FGF22 binding 0, Yeast UUG start 2, PDI turbidity -2, ARNT-TACC3 inh 21 and PglD inh 6.
For COc1ccc2nc(Cl)c(C#N)cc2c1 the results were ERp5 inh -2, FGF22 binding 42, Yeast UUG start -4, PDI turbidity 22, ARNT-TACC3 inh -6 and PglD inh -5.

For reference, three of the compounds above:
For CCN(CC)CCC(c1ccc(N(C)C)cc1)c1c(OC)cc(OC)c2c(-c3ccccc3)cc(=O)oc12 (stereo not given) the results were ERp5 inh 5, FGF22 binding 0, Yeast UUG start -12, PDI turbidity -1, ARNT-TACC3 inh 39* and PglD inh -1.
Screening COc1ccc(C(CCN2CCCC(C)C2)c2c(OC)cc(OC)c3c(-c4ccccc4)cc(=O)oc23)cc1 (stereo not given) returned ERp5 inh 3, FGF22 binding 0, Yeast UUG start 2, PDI turbidity -2, ARNT-TACC3 inh 21 and PglD inh 6.
For COc1ccc2nc(Cl)c(C#N)cc2c1 the results were ERp5 inh -2, FGF22 binding 42, Yeast UUG start -4, PDI turbidity 22, ARNT-TACC3 inh -6 and PglD inh -5.
